Protein sequences, listed by entry. Tags and fused reporters are not part of them. Residues count along the entry.
UniProt P32301, 22-463: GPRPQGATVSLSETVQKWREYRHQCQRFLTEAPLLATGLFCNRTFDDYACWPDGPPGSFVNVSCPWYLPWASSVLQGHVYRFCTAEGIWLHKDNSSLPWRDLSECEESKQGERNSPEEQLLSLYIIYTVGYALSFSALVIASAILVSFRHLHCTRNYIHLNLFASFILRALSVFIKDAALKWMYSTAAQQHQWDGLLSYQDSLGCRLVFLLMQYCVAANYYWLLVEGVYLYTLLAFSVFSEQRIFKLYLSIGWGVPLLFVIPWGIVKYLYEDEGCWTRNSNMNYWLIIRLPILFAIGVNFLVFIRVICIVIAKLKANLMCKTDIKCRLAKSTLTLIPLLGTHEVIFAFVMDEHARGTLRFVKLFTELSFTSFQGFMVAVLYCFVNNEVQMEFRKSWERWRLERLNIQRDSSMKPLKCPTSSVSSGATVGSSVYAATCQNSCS

According to patent publication US20210046188A1:

Molecular target: rat GLP-1R (rat) (UniProt P32301)
Assay: cell-based or functional assay

66.2 kDa EG9 exendin-C-POEGMA conjugate (from UniProt P26349 48-86) (peptide)
EC50 (nM), cAMP response in BHK cells expressing GLP-1R: 2.1 nM
